Values of other authors in patent publication US9074014B2, “Analogues of glucose-dependent insulinotropic polypeptide” (Ipsen Pharma S.A.S., priority 2008, dated 2015).

Conditions: unmodified GIP; Said and Mutt, 1970; cited from earlier work

Q: With “Glucose-dependent insulinotropic polypeptide [GIP]” as the substance, how does the in vivo half-life read?
A: about 2 minutes
